Values of other authors as cited in US8487131B2 (Sanford-Burnham Medical Research Institute, priority 2009, dated 2013).

Test system: MDA-MB-231 breast cancer cells
Conditions: read-out: EC50 in killing MDA-MB-231 breast cancer cells; reference 13; cited from earlier work

Structure (SMILES): Cc1cc2c(C(C)C)c(O)c(O)c(C=O)c2c(O)c1-c1c(C)cc2c(C(C)C)c(O)c(O)c(C=O)c2c1O (single isomer, unassigned)
- EC50: 2000 nM
